{"sequences": {"note": "Protein sequences, listed by entry. Tags and fused reporters are not part of them.", "UniProt O14920, whole entry": "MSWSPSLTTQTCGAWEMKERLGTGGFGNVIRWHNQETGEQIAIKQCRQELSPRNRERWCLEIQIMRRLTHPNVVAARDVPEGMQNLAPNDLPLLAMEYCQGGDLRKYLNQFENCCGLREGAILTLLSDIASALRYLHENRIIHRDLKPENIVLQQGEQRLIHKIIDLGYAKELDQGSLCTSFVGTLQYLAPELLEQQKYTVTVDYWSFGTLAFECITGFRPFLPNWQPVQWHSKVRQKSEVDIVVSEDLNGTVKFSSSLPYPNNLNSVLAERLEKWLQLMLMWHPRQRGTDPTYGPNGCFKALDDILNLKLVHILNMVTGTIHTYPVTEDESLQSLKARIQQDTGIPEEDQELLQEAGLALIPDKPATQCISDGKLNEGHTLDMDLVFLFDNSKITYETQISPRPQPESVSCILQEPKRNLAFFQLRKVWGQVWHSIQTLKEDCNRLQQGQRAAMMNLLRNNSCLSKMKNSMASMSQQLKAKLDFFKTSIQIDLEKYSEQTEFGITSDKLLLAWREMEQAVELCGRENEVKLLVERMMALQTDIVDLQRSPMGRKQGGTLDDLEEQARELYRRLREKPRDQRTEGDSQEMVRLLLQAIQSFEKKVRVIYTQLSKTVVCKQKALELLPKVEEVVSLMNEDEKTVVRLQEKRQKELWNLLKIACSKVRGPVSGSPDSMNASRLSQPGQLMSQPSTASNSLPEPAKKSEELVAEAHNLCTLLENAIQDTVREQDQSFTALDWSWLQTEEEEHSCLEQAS"}, "source": "patent US7186743B2", "about": "“Substituted pyrazolyl compounds for the treatment of inflammation” (Pharmacia Corporation, priority 2001, dated 2007)", "biological_target": "IKK2 (Homo sapiens, UniProt O14920)", "assay": "IKKβ Resin Enzyme Assay (IKK2 resin)", "assay_type": "biochemical", "details": "read-out: IKK2 Resin IC 50; Table 6", "note": "pIC50: −log10 of the molar value.", "data": [{"smiles": "NC(=O)c1nn(-c2ccc(F)cc2)c2c1CCc1ccc(NC(=O)c3cc4c(cc3Cl)OCO4)cc1-2", "values": [{"measurement": "pIC50", "value": "≥ 6.00"}]}]}
